An excerpt weighted towards active compounds, which were near 2.3% of everything screened.
MC4R antagonist – human MC4R antagonism in cAMP assay. hit rate 0.48% among 360,000. P32245. MC4R-expressing cells, MTII-stimulated cAMP, LANCE TR-FRET. AID 540295. inhibition, % at 6.5 µM;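 active = inhibition above its plate's cutoff, the mean of tested wells on that plate plus 3 SD, cut at about 29% in these data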;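 note: 0% = Melanotan II alone and 100% = Melanotan II plus saturating MCL0020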
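Material: human MC4R-expressing U2OS cells. Probe or stimulus: Melanotan II challenge. Dosing: 6.5 µM single dose. Times: 30-min compound, 1-h challenge, 1-h detection, room temperature. Technique: TR-FRET with Eu-cAMP and labeled anti-cAMP, 671 nm. Replication: singlicate.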
UUG fidelity – modulators of start codon recognition fidelity in yeast; AID 602363; hit rate 0.13% among 350,000; activity score, % at 18.7 µM; S. cerevisiae UUG-firefly luciferase reporter, luminescence/redox ratio;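 active = replicate mean at a twofold rise or more, about +100% in these data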;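 note: firefly luciferase made from a UUG start codon reports start codon fidelity; reporter light over untreated wells divided by growth signal over untreated wells; some hits fall short of that in this replicate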
ARFGAP1 inhibitor – inhibitors of rat ARFGAP1; Q62848; Arfgap1-stimulated ARF1 GTP hydrolysis, GDP FP detection; inhibition, % at 16.5 µM; hit rate 0.26% among 360,000; AID 651572;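 active = inhibition above a per-plate limit, mean inhibition of low control wells plus 3 SD, cut at about 25% in these data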;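 note: 0% = DMSO wells with enzyme and 100% = wells lacking Arfgap1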
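Assay system: purified rat His6-Arfgap1 residues 1-136 (GAP domain); Reagent: human Δ17 ARF1 bound to GTP; Dosing: 16.5 µM single point, 1.26% DMSO; Times: GTP hydrolysis reaction 2 h at 25 °C; Signal: FP, GDP Alexa 633 tracer displaced from anti-GDP antibody, 620/688 nm; Measure: % inhibition from polarization.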
NRP1-CendR mod – modulators of CendR peptide binding to human neuropilin-1; O14786; FAM-RPARPAR peptide binding to NRP-1, fluorescence polarization; inhibition, % at 25 µM; hit rate 0.85% among 360,000; AID 602438;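 active = inhibition or corrected inhibition above about 18%, plus a signal ratio from 0.5 to 1.5, limit read from the data, passing the limit was not always enough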
MC4R ag barr – agonists of human melanocortin 4 receptor (MC4R) beta-arrestin. AID 540308. hit rate 0.98% among 360,000. U2OS MC4R beta-arrestin complementation, luminescence; percent of melanotan II response, DMSO zero. activation, % at 8.9 µM;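 active = activation above a per-plate cutoff, the mean activation of sample wells on that plate plus 3 SD, cut at about 8% in these data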
ASAP1 inh – ASAP1 ArfGAP inhibition; Q9ULH1; ASAP1-stimulated ARF1 GTP hydrolysis, GDP FP detection; inhibition, % at 16.5 µM; hit rate 0.19% among 360,000; AID 624377; in the data active = inhibition above about 25%;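 note: 0% = vehicle with enzyme and substrate and 100% = no enzyme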
ASAP1 inh confirm – confirmation of human ASAP1 inhibitors. shares compounds with ASAP1 inh. ASAP1-stimulated Arf1 GTPase, GDP fluorescence polarization. inhibition, % at 16.5 µM. hit rate 37% among 620;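 active = mean inhibition over triplicates exceeds the hit threshold derived for the earlier primary screening run, cut at about 25% in these data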
ARFGAP1 confirm – confirmation of rat ARFGAP1 inhibitors; shares compounds with ARFGAP1 inhibitor; ARFGAP1-stimulated ARF1 GTP hydrolysis, GDP tracer FP; inhibition, % at 16.5 µM; hit rate 30% among 890; AID 651608;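 active = average inhibition over triplicates above the hit cutoff set in the earlier primary screen, cut at about 25% in these data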;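 note: 0% = Arfgap1 plus ARF1-GTP with DMSO and 100% = wells lacking Arfgap1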
Active calls of the source: *; . = no result; ! = repeats disagree.

SMILES	MC4R antagonist	UUG fidelity	ARFGAP1 inhibitor	NRP1-CendR mod	MC4R ag barr	ASAP1 inh	ARFGAP1 confirm	others
O=C(CSCC(=O)Nc1nc(-c2ccc3c(c2)OCO3)cs1)Nc1nccs1	-1	-12	-4	-11	0	9	.
O=C(CSc1ccc(-c2ccc3c(c2)OCO3)nn1)Nc1nccs1	3	.	46*	2	9.5*	132*	135*	ASAP1 inh confirm=75*
COc1ccc(/C=C2\Oc3cc(OCC(N)=O)ccc3C2=O)cc1OC	-8	15	32*	-27	0	35*	45*	ASAP1 inh confirm=47*
CCC(=O)Nc1c(C#N)c2nc3ccccc3nc2n1-c1ccc(C)cc1	9	.	-2	-16	0	-10	.
N#Cc1c(NC(=O)c2ccc(Br)o2)n(-c2ccccc2)c2nc3ccccc3nc12	12	-9	27*	-71	0	42*	-1	ASAP1 inh confirm=20
COc1ccc(N2CCN(C(=S)NCc3ccccc3)CC2)cc1	11	1	38*	-2	-2	37*	6	ASAP1 inh confirm=7
COc1ccc(N2CCN(C(=S)NCCc3ccccc3)CC2)cc1	13	-7	-7	1	1	0	.
C[C@@H]1CN([C@H](C)CO)C(=O)c2cc(-c3ccccc3F)cnc2O[C@@H]1CN(C)C(=O)NC1CCCC1	.	8	.	.	.	.	.
C[C@@H]1CN([C@H](C)CO)C(=O)c2cc(NC(=O)C3CCCCC3)ccc2O[C@@H](C)CCCCO[C@@H]1CN(C)S(=O)(=O)c1ccccc1	.	-5	.	.	.	.	.
C/C(=N\NC(=O)c1cc(-c2cccc([N+](=O)[O-])c2)n[nH]1)c1ccccc1O	-4	.	54*	-11	-1	136*	152*	ASAP1 inh confirm=150*
CC(=O)Nc1ccc(NC(=O)CSc2ccc(-c3cccnc3)nn2)cc1	3	45	-3	6	-4	5	.
CC(=O)Nc1ccc(NC(=O)CSc2ccc(-c3ccc(-n4ccnc4)cc3)nn2)cc1	8	-22	25*	-20	1	66*	72*	ASAP1 inh confirm=71*
C[C@H](CO)N1C[C@H](C)[C@H](CN(C)C(=O)Nc2ccc(C(F)(F)F)cc2)Oc2c(NS(=O)(=O)c3ccc(Cl)cc3)cccc2C1=O	.	-5	.	.	.	.	.
CCC(/C=C1\Sc2ccc(OC)cc2N1CCO)=C\c1sc2ccc(OC)cc2[n+]1CCO	4	-8	42*	-20	-3	32*	25*	ASAP1 inh confirm=35*
COC(=O)CSc1nnc2n(-c3ccc(OC)cc3)c(=O)c3c4c(sc3n12)CCCCC4	21	-14	62*	4	-2	39*	75*	ASAP1 inh confirm=42*
COc1ccc(NC(=O)Nc2ccc3c(c2)C(=O)N([C@H](C)CO)C[C@H](C)[C@@H](CN(C)C(=O)Nc2c(C)noc2C)OCCCC[C@H](C)O3)cc1	.	-11	.	.	.	.	.
CC1(C)OC(=O)C(=Cc2ccc(-c3ccc(Cl)c(C(=O)O)c3)o2)C(=O)O1	6	.	-11	-46	2	-6	.
Cc1[nH][nH]c(=O)c1C(c1ccc(-c2ccc(Cl)c(C(=O)O)c2)o1)c1c(C)[nH][nH]c1=O	3	.	25*	1	-2	42*	-2	ASAP1 inh confirm=11
CCCOc1ccc(C(=O)N/N=C/c2c[nH]c3ccc(Br)cc23)cc1	-9	-9	25*	3	2	11	14
COc1cc(/C=N/Nc2nc3ccccc3s2)ccc1OC(=O)c1ccccc1F	-6	.	25*	-14	1	-1	18
O=C(N/N=C/c1ccccc1)c1ccc(CN2C(=O)c3cccc4cccc2c34)cc1	10	.	15	-34	-1	-1	.
O=C(N/N=C/c1ccc(O)cc1O)c1ccc(CN2C(=O)c3cccc4cccc2c34)cc1	-3	.	27*	-5	-2	7	80*
CCC(=O)Nc1ccc(NC(=O)CSc2nnnn2-c2ccc3c(c2)OCCO3)cc1	-4	.	33*	-24	7	8	42*
CCOC(=O)c1csc(NC(=O)CSc2nnnn2-c2ccc3c(c2)OCCO3)n1	0	-5	4	-10	0	7	.
COc1cc2cc(C(=O)NC(C)c3cccc4ccccc34)c(N)nc2cc1OC (stereo unspecified)	.	.	25*	-18	.	19	7
COc1ccccc1C(=O)NC(C)c1cccc2ccccc12 (stereo unspecified)	8	-10	6	5	-2	2	.
O=Cc1ccc(C(=O)OCC(=O)N2CCCC2)cc1	20	8	-12	-11	1	-4	.
O=C(OCC(=O)N1CCCC1)c1ccc(OC(F)(F)F)cc1	0	.	25*	-5	-2	20	2
C=CCn1c2ccccc2c2nnc(SCCCn3c(=O)[nH]c4ccccc43)nc21	-30	-8	40*	-5	0	-12	5
CCOc1ccc(C(=O)N(CN2CCCC2=O)c2cccc(Cl)c2)cc1	7	.	38*	-10	1	-7	-1
Cc1ccc(S(=O)(=O)N/N=C\c2cn(CC(N)=O)c3ccccc23)cc1	-4	2	30*	14	-1	0	-7
C[C@H](CO)N1C[C@H](C)[C@H](CN(C)C(=O)Nc2ccc(F)cc2)Oc2ccc(NC(=O)Nc3cccc4ccccc34)cc2CC1=O	.	3	.	.	.	.	.
C[n+]1c2cc(N)ccc2cc2ccc(N)cc21	-28	-56	25*!	143	-1	20	3
CN1C[C@H](O)COC[C@H]2O[C@@H](CC(=O)NC3CCC3)CC[C@@H]21	.	-7	.	.	.	.	.
O=C(C[C@@H]1C[C@@H]2c3cc(NC(=O)NC4CCCC4)ccc3O[C@@H]2[C@H](CO)O1)NCCN1CCCCC1	.	-10	.	.	.	.	.
CC(C)c1cccc(C(C)C)c1NC(=O)OC1CCCCC1	.	.	28*	8	.	-11	4
CSc1cccc(NC(=O)OC2CCCCCCCCCCC2)c1	9	-21	0	7	-1	2	.
CCOC(=O)c1cc2c(=Cc3ccc(N(C)C)cc3)c3ccccc3n2[n+]1C	-32	.	29*	-74	0	21	-6
COc1ccc2nc(NC(=O)Cn3cnc4ccccc4c3=O)sc2c1	16	-12	27*	-24	8.3*	7	8
COc1ccc(NC(=O)Cn2cnc3ccccc3c2=O)cc1OC	-1	.	8	-9	-5	-10	.
CCOc1ccc2nc(NC(=O)Cn3cnc4c3c(=O)n(C)c(=O)n4C)sc2c1	8	-12	27*	-4	0	12	7
COc1ccc(OC)c([N+](=O)[O-])c1C(N)=O	5	.	26*	4	-2	8	-5

Part of the list above in order of molecular weight, rising.
SMILES	MC4R antagonist	UUG fidelity	ARFGAP1 inhibitor	NRP1-CendR mod	MC4R ag barr	ASAP1 inh	ARFGAP1 confirm	others
O=Cc1ccc(C(=O)OCC(=O)N2CCCC2)cc1	20	8	-12	-11	1	-4	.
CN1C[C@H](O)COC[C@H]2O[C@@H](CC(=O)NC3CCC3)CC[C@@H]21	.	-7	.	.	.	.	.
CCOC(=O)c1cc2c(=Cc3ccc(N(C)C)cc3)c3ccccc3n2[n+]1C	-32	.	29*	-74	0	21	-6
COc1cc2cc(C(=O)NC(C)c3cccc4ccccc34)c(N)nc2cc1OC (stereo unspecified)	.	.	25*	-18	.	19	7
O=C(N/N=C/c1ccc(O)cc1O)c1ccc(CN2C(=O)c3cccc4cccc2c34)cc1	-3	.	27*	-5	-2	7	80*
CCC(=O)Nc1ccc(NC(=O)CSc2nnnn2-c2ccc3c(c2)OCCO3)cc1	-4	.	33*	-24	7	8	42*

Screens as filed in PubChem BioAssay.
